Data from patent publication US20050176649A1, “Iap binding peptides and assays for identifying compounds that bind iap” (priority 2001, published 2005).
Non-standard residues stand in square brackets, D forms with d. Residues, ends and D or L forms follow the SMILES beside them. ξ: configuration not given here. ξAbu = CCC(N)C(=O)O

By UniProt entry, the sequences of proteins in these tests, tags left out. Residues count along the entry.
UniProt P98170, 238-358: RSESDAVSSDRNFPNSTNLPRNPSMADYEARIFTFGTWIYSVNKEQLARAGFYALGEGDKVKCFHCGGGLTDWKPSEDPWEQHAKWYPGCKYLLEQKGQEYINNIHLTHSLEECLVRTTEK

Key:
BIR3 domain of XIAP = target: T1, BIR3 domain of XIAP (Homo sapiens, UniProt P98170); test: Fluorescence displacement assay: AVPC-badan displaced from BIR3 by test tetrapeptide (typical assay, Tables 1 and 2); format: binding, mammalian; details: for Krelative: relative equilibrium constant for displacement of AVP-dye, larger = greater affinity for BIR3; for binding to BIR3 (in words): ability to displace the AVP-dye
T1 construct: Recombinant XIAP-BIR3 (residues 238-358); GST (N, cleaved yes); made in house; host or cells: E. coli
From the text: The ability to quickly assay small molecules for their effectiveness in disrupting protein-protein interactions is critical to the development of viable drug candidates. One aspect of the present invention comprises an assay to test the binding affinity of a library of tetrapeptide molecules for the BIR3 domain of an inhibitor of apoptosis protein (LAP), particularly the mammalian XIAP. The assay is based on a detectable label, preferably a fluorogenic dye molecule. In preferred embodiments, the fluorophore is attached to a tripeptide, AVP, whose sequence matches the N-terminal three residues of Smac. The general structure of this molecule, therefore, is AVP[X], wherein X is the fluorophore. The molecule is referred to herein as an “AVP-dye”. The AVP-dye packs into the groove of the BIR3, causing a large shift in emission maximum and intensity when the environment of the dye changes from water to the hydrophobic pocket of the protein. If a molecule (e.g. the native Smac protein or a tetrapeptide mimic) displaces the dye, then emission will shift back to the spectrum observed in water. Since the emission intensity is related to the binding of the tetrapeptide, the intensity can be used to estimate the equilibrium constant, K, for displacement of the AVP-dye by the tetrapeptide. The larger the equilibrium constant, the greater affinity the tetrapeptide has for the BIR3.
The aforementioned AVP-dye is used in an assay of test compounds that may, like the Smac tetrapeptide AVPI, bind to the BIR3 domain of XIAP, thereby relieving XIAP-mediated suppression of apoptosis. This is a high-throughput, cell-free assay, that is assembled as follows. A protein comprising the BIR3 domain of an IAP is placed in an assay medium comprising a suitable buffer, as described above. Preferably, this is a recombinant protein comprising the BIR3 domain, but a full IAP protein also may be used. An aliquot of the AVP-dye is added to the reaction mixture, in the presence of the test compound. Controls comprise the BIR3 and the dye in the absence of the test compound and, optionally, BIR3 and the dye in the presence of the naturally occurring tetrapeptide, AVPI. […] Alternatively, a emission spectrum is measured at the selected excitation wavelength. In one type of measurement, the test compound is added and an emission spectrum is measured by scanning from, e.g., 460-480 nm. In another type of measurement, the emission intensity at a particular wavelength, e.g., 470 nm, is measured. […] Thus, the binding affinity of the test compound may be calculated as a function of its ability to displace the dye from the BIR3 domain, according to the following calculation: [formula]
Stock solution of badan, BIR3, and buffer were mixed: 2.5 ml of badan, 1.75 ml BIR3, and 15.25 ml of buffer were mixed in a glass vial which had been chilled to 4° C. Added 390 μL of the stock solution to 50 wells in the pre-chilled 96 well plate (wells A1-E2).
Stock solution of badan and buffer were mixed: 150 μL badan and 1020 μL of buffer were mixed in a small glass vial (also chilled) and added to 3 wells on the plate in 390 μL aliquots (F1-F3).
The 96 well plate was stored over ice in an insulated bucket while the emission spectra of the samples were taken. Fifty μL of the appropriate test solution (or water, for the control experiments) was added with a micropipet, the solution mixed with a Pasteur pipet before adding the sample to the fluorescence cuvette. While one sample was being scanned, the cuvette from the previous scan was washed with EtOH and then next sample was prepared.

[1] = target: T2, BIR3 domain of XIAP (recombinant XIAP-BIR3, residues 238-358) (Homo sapiens, UniProt P98170); test: Fluorescence-based competition assay of tetrapeptide libraries (Example 1); format: binding, mammalian; details: discussion of Table 4
T2 construct: Recombinant XIAP-BIR3 (residues 238-358); GST (N, cleaved yes); made in house; host or cells: E. coli
From the text: Expression and Purification of BIR3. […] The soluble fraction of the GST-BIR3 in the E. coli lysate was purified over a glutathione sepharose column, and further purified by anion exchange chromatography (Mono-Q, Amersham Biosciences). The fusion protein was cleaved by thrombin, and the GST portion was removed by the glutathione sepharose column. The BIR3 protein was further purified over a gel filtration column (Superdex 30, Amersham Biosciences).
Fluorescence Experiments. Luminescence spectra were recorded using a Photon Technologies, Inc. fluorometer with a Xe arc lamp and a PMT detector. […] The buffer used in all of the fluorescence experiments was 50 mM potassium phosphate, 100 mM NaCl, 2 mM 1,4-dithio-DL-threitol (DTT), pH 7.
Assay of Tetrapeptide Libraries. The samples were prepared in a 96 well plate lined with glass tubes, to prevent adsorption of the dye to plastic. The plate was stored on ice in the dark between measurements. […] 390 μL of this stock solution were added to 50 wells of the 96 well plate. 50 μL of the test tetrapeptide solutions were added and mixed immediately prior to taking the emission spectra. The final solutions were 5 μM in both badan and BIR3, and approximately 20-30 μM in the tetrapeptide solutions. […] 50 μL of water was added to these wells, again as controls, to determine the intensity of the unbound dye.
The binding of various tetrapeptide mimics to the BIR3 domain of XIAP was determined using a fluorescence-based competition assay. The assay is based on an environment-sensitive fluorogenic dye molecule, badan. Badan is a dye whose sensitivity to environmental changes has previously been used to probe protein binding interactions. […] As the dye is displaced from the binding pocket by the test molecule, the emission shifts back towards the aquated spectrum.

[2] = target: Recombinant XIAP-BIR3 (residues 238-358) (UniProt P98170); test: fluorescence competition, displacement of AVPC-badan from BIR3

Molecule	Krelative (BIR3 domain of XIAP)	binding affinity for BIR3 (in words) [1]	binding to BIR3 (in words) (BIR3 domain of XIAP)	Kd [2] [nM]
CC[C@H](C)[C@H](NC(=O)[C@@H]1CCCN1C(=O)[C@H](Cc1c[nH]cn1)NC(=O)[C@H](C)N)C(N)=O [AHPI] (H-AHPI-NH2; N-terminus and C-terminus assumed)	2.2917	high affinity		
CC[C@H](C)[C@H](NC(=O)[C@@H]1CCCN1C(=O)[C@H](CCCNC(=N)N)NC(=O)[C@H](C)N)C(N)=O [ARPI] (H-ARPI-NH2; N-terminus and C-terminus assumed)	4.3126	high affinity	strong binding	
CC(C)[C@H](NC(=O)[C@H](C)N)C(=O)N[C@@H](C)C(=O)N[C@@H](Cc1ccccc1)C(N)=O [AVAF]		diminished by greater than a factor of ten relative to that observed for the AVPF	bound strongly	
CC(C)[C@H](NC(=O)[C@H](C)N)C(=O)N1CCC[C@H]1C(=O)N[C@@H](CS)C(N)=O [AVPC, Ala-Val-Pro-Cys-NH2]		greater than that of the AVPC-badan		
CC(C)[C@H](NC(=O)[C@H](C)N)C(=O)N1CCC[C@H]1C(=O)N[C@@H](CCCCN)C(N)=O [AVPK]			bound BIR3 only weakly	
CC(C)[C@H](NC(=O)[C@H](C)N)C(=O)N1CCC[C@H]1C(=O)N[C@@H](Cc1c[nH]c2ccccc12)C(N)=O [AVPW] (H-AVPW-NH2; N-terminus and C-terminus assumed)	23.1330	closely followed	binding at a strength equivalent to that of the naturally-occurring Smac peptide	
CC(C)[C@H](NC(=O)[C@H](C)N)C(=O)N1CCC[C@H]1C(=O)N[C@@H](Cc1ccc(O)cc1)C(N)=O [AVPY] (H-AVPY-NH2; N-terminus and C-terminus assumed)	2.5442	binding affinity slightly greater than the natural analog	binding at a strength equivalent to that of the naturally-occurring Smac peptide	
AIAY: tetrapeptide, SEQ ID NO:17; sequence of a Drosophila homolog of Smac (Synthetic tetrapeptide sequence)			bound strongly	

Other lines, results leading:

Krelative (BIR3 domain of XIAP)	binding affinity for BIR3 (in words) [1]	binding to BIR3 (in words) (BIR3 domain of XIAP)	Kd [2] [nM]	Molecule
3.0455				CCC(N)C(=O)N[C@H](C(=O)N1CCC[C@H]1C(=O)N[C@H](C(N)=O)[C@@H](C)CC)C(C)C (some centres unmarked) [AbuVPI] (H-[ξAbu]VPI-NH2; N-terminus and C-terminus assumed)
	greatly diminished			CC[C@H](C)[C@H](NC(=O)[C@@H]1CCCN1C(=O)[C@@H](NC(=O)CN)C(C)C)C(N)=O [GVPI]
	diminished binder			CC[C@H](C)[C@H](NC(=O)[C@@H]1CCCN1C(=O)[C@@H](NC(=O)[C@@H](N)CO)C(C)C)C(N)=O [SVPI]
			240	AbuVPI (peptide)
